PglD DTNB – PglD (C. jejuni) enzyme inhibition; purified PglD enzyme, DTNB colorimetric CoA detection; inhibition, % at 12.5 µM; 360,000 compounds, 0.098% hits; in the data active means inhibition above about 16%, passing the limit was not always enough; inconclusive means no clear call, values can overlap the other calls
Wnt act – activates Wnt/beta-catenin signaling in a reporter cell assay; AID 743398; 300,000 compounds, 1.2% hits; activation, % at 9.35 µM; activator, plate reader; in the data active means activation above about 30%, passing the limit was not always enough; inconclusive means no clear call, values can overlap the other calls;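 further: 0% = neutral control wells and 100% = positive control wells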
UUG fidelity – alters start codon recognition fidelity in yeast; AID 602363; activity score, % at 18.7 µM; 350,000 tested, 0.13% active; S. cerevisiae UUG-firefly luciferase reporter, luminescence/redox ratio;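 active means replicate mean at a twofold rise or more, about +100% in these data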;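 further: firefly luciferase made from a UUG start codon reports start codon fidelity; reporter light over untreated wells divided by growth signal over untreated wells; some hits fall short of that in this replicate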
esBAF inh – inhibitors of esBAF chromatin remodeling in mouse ES cells. Bmi1-luciferase knock-in reporter, 24 h; 100% = twice the neutral-well signal. AID 602393. 350,000 compounds, 2% hits. reporter increase, % at 12.5 µM; in the data active means activation above about 40%; inconclusive means no clear call, values can overlap the other calls;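 further: 0% = median of the plate's neutral control wells and 100% = double that signal; a rise in the Bmi1 reporter signal indicates esBAF inhibition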
miR122 inh – miR-122 inhibition in Huh7 cells; Huh7 miR-122 Renilla luciferase sensor, 48 h; neutral wells = 0, positive control = 100; 340,000 compounds, 0.3% hits; AID 602342; activation (reporter increase), % at 12.5 µM;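 active means mean replicate activation score at least 90 and every replicate individually at or above 90; inconclusive means only one of the two criteria met; inactive means neither criterion met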;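 further: higher luciferase means less miR-122 activity so hits act as miR-122 inhibitors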
MITF TRPM1 HTS – activators of MITF-driven TRPM1 promoter activity in SK-MEL-5 cells | SK-MEL-5 TRPM1-promoter luciferase, 24 h; % of positive control, neutral wells = 0 | activation, % at 12.5 µM | 300,000 compounds, 0.75% hits | AID 588334;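 active means mean activation of at least 80% with every replicate also reaching 80%; inconclusive means mean reaches 80% but some replicate falls short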;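 further: 0% = neutral control wells and 100% = parthenolide positive control wells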
Active calls of the source: *; [ ] = remark or other dose. Shown are actives, neighbours in structure and some others; about 2.8% of the full set was active somewhere.

Results for O=C(COc1ccc(Br)cc1CO)Nc1ccccc1F ?
PglD DTNB: 9; Wnt act: 2; UUG fidelity: -8; esBAF inh: 33; miR122 inh: 1; MITF TRPM1 HTS: 102*

What do the screens show for `CO[C@@H]1CN(C)C(=O)c2cc(NC(C)=O)ccc2OC[C@H](C)N(Cc2ccccc2C(=O)O)C[C@H]1C`?
PglD DTNB: 4; UUG fidelity: -6; esBAF inh: 1; miR122 inh: 25[16.7 µM]

How did CC1(C)CC(=O)C(/C=N/c2ccccn2)=C(O)C1 do in these assays?
PglD DTNB: 6; UUG fidelity: 4; esBAF inh: -6; miR122 inh: -5; MITF TRPM1 HTS: -1

Results for CC1(C)CC(=O)C(/C=N/n2cnc3ccccc3c2=O)=C(O)C1 ?
PglD DTNB: -1; UUG fidelity: -9; esBAF inh: 49*; miR122 inh: -6

How did CC1CCCN(C(=O)CSc2nc3ccccc3o2)C1 (stereo not drawn) do in these assays?
PglD DTNB: 0; Wnt act: inconclusive; UUG fidelity: -4; esBAF inh: 29; miR122 inh: -4

What do the screens show for `CN(C(=O)CSc1nc2ccccc2o1)C1CCCCC1`?
PglD DTNB: -2; Wnt act: 57*; UUG fidelity: -1; esBAF inh: 23; miR122 inh: -9; MITF TRPM1 HTS: inconclusive

How did CCc1ccc(NC(=O)c2cnc3n(c2=O)CCS3)cc1 do in these assays?
PglD DTNB: -5; Wnt act: 10; UUG fidelity: -15; esBAF inh: 61*; miR122 inh: -4; MITF TRPM1 HTS: 34

Results for CCc1ccccc1NC(=O)c1cnc2n(c1=O)CCS2 ?
PglD DTNB: 2; Wnt act: 2; UUG fidelity: -10; esBAF inh: 9; miR122 inh: 0; MITF TRPM1 HTS: 30

How did CN(C)C(=O)c1ccc(-c2cccc(-c3nc(C(=O)NC4CCC4)cc4c3[C@H](CCO)N([S@@](=O)C(C)(C)C)C4)c2)cc1 do in these assays?
PglD DTNB: 4; esBAF inh: 6

How did CC(=O)Oc1oc(-c2ccccc2)nc1C=Nc1ccc(N(C)C)cc1 do in these assays?
PglD DTNB: 4; Wnt act: 6; UUG fidelity: 3; esBAF inh: 2; miR122 inh: -3

Results for CN(C)c1ccc(N=Cc2nc(-c3ccccc3)oc2OC(=O)c2ccccc2)cc1 ?
Wnt act: 35*; MITF TRPM1 HTS: 12

What do the screens show for `CCOc1ccccc1Oc1coc2cc(OCC(=O)O)ccc2c1=O`?
PglD DTNB: 1; Wnt act: -14; UUG fidelity: 1; esBAF inh: -1; miR122 inh: 4; MITF TRPM1 HTS: 3

Results for CCOc1ccc2c(=O)c(Oc3ccccc3OCC)coc2c1 ?
PglD DTNB: 1; Wnt act: 0; UUG fidelity: -25; esBAF inh: 64*; miR122 inh: 2; MITF TRPM1 HTS: 56

What do the screens show for `Cc1sc2nc(-c3ccc(Br)cc3)oc(=O)c2c1C`?
PglD DTNB: -1; UUG fidelity: -13; esBAF inh: 55*; miR122 inh: -6

What do the screens show for `Cc1sc2nc(-c3cccs3)oc(=O)c2c1C`?
PglD DTNB: -11; Wnt act: 0; UUG fidelity: -12; esBAF inh: 10; miR122 inh: 8; MITF TRPM1 HTS: 16

What do the screens show for `O=S(=O)(c1ccccc1F)N1CC[C@H]2[C@H](CO)Nc3ccc(-c4ccccc4)cc3[C@H]21`?
PglD DTNB: -3; UUG fidelity: -13; esBAF inh: 7; miR122 inh: 28[16.7 µM]

Results for CO[C@@H]1CN(C)C(=O)c2cc(NC(=O)c3cnccn3)ccc2OC[C@H](C)N(C(=O)C2CC2)C[C@H]1C ?
PglD DTNB: 0; UUG fidelity: 10; esBAF inh: -4

Results for Cc1ccc(S(=O)(=O)N2Cc3ccccc3CC2C(=O)NC(C)(C)C)cc1 (stereo not drawn) ?
PglD DTNB: 0; Wnt act: -1; UUG fidelity: -10; esBAF inh: 0; miR122 inh: 0; MITF TRPM1 HTS: 7

Results for COc1ccc(S(=O)(=O)N2CCCCC2c2cc(C(=O)Nc3ccc4c(c3)OCO4)no2)cc1 (stereo not drawn) ?
PglD DTNB: 3; Wnt act: -1; UUG fidelity: -2; esBAF inh: 16; miR122 inh: 11

For convenience, two of the compounds above.
Results for Cc1ccc(S(=O)(=O)N2Cc3ccccc3CC2C(=O)NC(C)(C)C)cc1 (stereo not drawn) ?
PglD DTNB: 0; Wnt act: -1; UUG fidelity: -10; esBAF inh: 0; miR122 inh: 0; MITF TRPM1 HTS: 7

Results for COc1ccc(S(=O)(=O)N2CCCCC2c2cc(C(=O)Nc3ccc4c(c3)OCO4)no2)cc1 (stereo not drawn) ?
PglD DTNB: 3; Wnt act: -1; UUG fidelity: -2; esBAF inh: 16; miR122 inh: 11
